Antibody variant affinities, Ab-14 heavy chain, assay B

From the AlphaSeq antibody data of Li et al. 2023 (doi:10.1038/s41467-023-39022-2), copy in the FLAb collection.

Target: peptide PDVDLGDISGINAS, taken from heptad repeat 2 (HR2) of SARS-CoV-2 spike.

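The parent was found by panning a naive human phage display library on the peptide. Designed CDR sequences, proposed from the first random library and measured here. Their group label is 14H_GPLM_Gen (GPLM: also part of the Gaussian process libraries; Gen: genetic algorithm; a sequence that several methods proposed may carry one label only). The scFvs were displayed on barcoded MATa yeast, the peptide on MATalpha yeast. After mating in shaken culture at 30 °C for 16 h, diploids were selected and their barcode pairs sequenced. The ratio of observed to expected reads was calibrated, replicate by replicate, on BCL2-family standards whose Kd was known from biolayer interferometry. Each pool was mated in six replicate cultures.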

The variants keep the light chain, the linker and the frameworks of Ab-14 (scFv order VH, the linker GGGGSGGGGSGGGGS, VL).
VH: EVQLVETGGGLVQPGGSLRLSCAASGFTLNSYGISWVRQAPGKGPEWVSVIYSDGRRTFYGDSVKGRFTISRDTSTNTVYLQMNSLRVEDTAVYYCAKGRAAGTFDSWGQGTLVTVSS
VL: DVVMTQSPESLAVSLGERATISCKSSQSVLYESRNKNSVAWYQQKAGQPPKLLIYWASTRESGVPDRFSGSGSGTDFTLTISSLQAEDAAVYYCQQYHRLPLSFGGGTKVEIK

Each variant's VH is given in full. Numbers give log10(Kd / nM), so 0 is 1 nM and 3 is 1 µM. Smaller is tighter. Where no diploid with the target was found in that replicate, the entry reads "ND": below detection, most likely a poor binder, though not proof of it. In the paper, a design with two or fewer of six values counts as a poor binder. Nonspecific signal, from three strains lacking the peptide, appeared in 1% of pairings of all heavy chain designs, centred on 2.08 (5% of these signals below 0.84); values are not corrected for it. For each scFv, signals with the empty controls are counted beside the result, with their mean in brackets. The parent sequence was in this pool as ten entries: three were never detected, three once, and four in most replicates, with averages from 0.34 to 2.37. The range of this assay differs from that of the first round, and the authors advise against merging the two.

VH | log10 Kd, replicates | control signals
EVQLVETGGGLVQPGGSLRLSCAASGFTLNSYGISWVRQAPGKGPEWVSVIYSDGRRTFYADSVKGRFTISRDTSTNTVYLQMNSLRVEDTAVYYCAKGEAAGTFDTWGQGTLVTVSS | 1.26 / 0.54 / ND / ND / ND / 1.56 | 0/18
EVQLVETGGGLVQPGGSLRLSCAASGFSLNDYGISWVRQAPGKGPEWVSVIYSDGIRTFYGDSVKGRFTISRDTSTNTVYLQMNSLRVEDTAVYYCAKGRTAGTFDSWGQGTLVTVSS | 0.06 / -0.14 / -0.12 / -0.49 / -0.20 / 0.26 | 1/18 (3.28)
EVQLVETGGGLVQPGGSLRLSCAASGFTLDSYGISWVRQAPGKGPEWVSVIYSDGRRTFYGDSVKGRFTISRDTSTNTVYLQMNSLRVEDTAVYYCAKGREAGTFDSWGQGTLVTVSS | -0.16 / 0.58 / -0.23 / 0.97 / 0.48 / ND | 0/18
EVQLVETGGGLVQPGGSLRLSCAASGFSLNSYGISWVRQAPGKGPEWVSVIYSDGRRTFYVDSVKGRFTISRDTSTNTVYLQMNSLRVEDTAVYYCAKGRLAGTFDSWGQGTLVTVSS | ND / ND / ND / 0.82 / 0.55 / 0.82 | 0/18
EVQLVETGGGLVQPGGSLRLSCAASGFSLNSYGISWVRQAPGKGPEWVSVIYSDGRRTFYQDSVKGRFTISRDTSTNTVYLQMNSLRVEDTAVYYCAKGKTAGTFDSWGQGTLVTVSS | 0.37 / 0.02 / -0.12 / 0.25 / 0.38 / 0.59 | 0/18
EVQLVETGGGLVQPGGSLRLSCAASGFSLNEYGISWVRQAPGKGPEWVSVIYSDGRRTFYGDSVKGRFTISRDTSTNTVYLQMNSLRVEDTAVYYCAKGRAAGTFDCWGQGTLVTVSS | ND / ND / ND / ND / ND / ND | 0/18
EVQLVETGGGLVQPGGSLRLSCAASGFSLNSYGISWVRQAPGKGPEWVSVIYSDGRRTFYDDSVKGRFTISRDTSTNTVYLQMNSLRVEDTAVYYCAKGKAAGTFDSWGQGTLVTVSS | 0.31 / 0.27 / -0.25 / 0.39 / 0.15 / -0.03 | 0/18
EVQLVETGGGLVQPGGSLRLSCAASGFALNSYGISWVRQAPGKGPEWVSVIYSDGRRTFYGDSVKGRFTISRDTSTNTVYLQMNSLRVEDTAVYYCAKGQTAGTFDSWGQGTLVTVSS | 1.43 / 0.62 / 0.91 / 0.93 / 1.18 / 1.18 | 1/18 (2.93)
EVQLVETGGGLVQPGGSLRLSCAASGFSLNMYGISWVRQAPGKGPEWVSVIYSDGRRTFYIDSVKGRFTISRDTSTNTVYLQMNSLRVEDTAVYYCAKGEAAGTFDSWGQGTLVTVSS | ND / 1.35 / ND / ND / ND / ND | 0/18
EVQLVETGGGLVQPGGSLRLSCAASGFTLNEYGISWVRQAPGKGPEWVSVIYSDGRRTMYGDSVKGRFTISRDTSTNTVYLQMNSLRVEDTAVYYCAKGRNAGTFDSWGQGTLVTVSS | 0.25 / -0.12 / 0.11 / 0.12 / -0.12 / 0.51 | 1/18 (2.44)
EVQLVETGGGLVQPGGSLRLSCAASGFNLNSYGISWVRQAPGKGPEWVSVIYSDGRRTFYGDSVKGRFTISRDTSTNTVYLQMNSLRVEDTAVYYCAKGREAGTFDTWGQGTLVTVSS | 0.29 / -0.15 / -0.07 / -0.33 / 0.00 / 0.02 | 0/18
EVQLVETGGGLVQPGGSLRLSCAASGFTLNSYGISWVRQAPGKGPEWVSVIYSDGRRTFYADRVKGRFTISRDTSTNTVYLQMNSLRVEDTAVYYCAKGEAAGTFDSWGQGTLVTVSS | 1.64 / ND / ND / ND / 1.80 / 1.56 | 0/18
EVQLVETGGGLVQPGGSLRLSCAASGFSLNEYGISWVRQAPGKGPEWVSVIYSDGRRTFYGDSVKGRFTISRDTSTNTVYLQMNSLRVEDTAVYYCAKGRTAGTFDAWGQGTLVTVSS | ND / ND / ND / ND / ND / ND | 0/18
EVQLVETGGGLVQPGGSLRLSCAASGFSLNSYGISWVRQAPGKGPEWVSVIYSDGQRTFYADSVKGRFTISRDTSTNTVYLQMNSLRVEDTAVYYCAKGRTAGTFDSWGQGTLVTVSS | -0.12 / -0.10 / -0.18 / -0.27 / -0.35 / -0.15 | 0/18
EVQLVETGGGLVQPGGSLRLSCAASGFDLNSYGISWVRQAPGKGPEWVSVIYSDGRRTFYSDAVKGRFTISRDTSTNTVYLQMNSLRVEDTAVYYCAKGRTAGTFDSWGQGTLVTVSS | 0.19 / 0.12 / -0.19 / 0.15 / 0.02 / -0.31 | 0/18
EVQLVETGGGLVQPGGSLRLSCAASGFTLNEYGISWVRQAPGKGPEWVSVIYSDGRRTFYGDSVKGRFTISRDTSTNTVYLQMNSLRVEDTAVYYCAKGRTAGTFDWWGQGTLVTVSS | 1.96 / ND / ND / 1.39 / 1.91 / ND | 0/18
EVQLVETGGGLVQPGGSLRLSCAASGFSLNDYGISWVRQAPGKGPEWVSVIYSDGRRTWYGDSVKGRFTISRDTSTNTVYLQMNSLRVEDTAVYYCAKGRTAGTFDSWGQGTLVTVSS | -0.45 / -0.88 / -0.37 / -0.73 / -0.88 / 0.09 | 1/18 (1.64)
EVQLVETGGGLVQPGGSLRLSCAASGFELNSYGISWVRQAPGKGPEWVSVIYSDGRRTFYADSVKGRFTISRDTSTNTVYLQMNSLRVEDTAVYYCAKGREAGTFDSWGQGTLVTVSS | -0.35 / -0.20 / -0.27 / -0.42 / -0.53 / -0.43 | 0/18

A selection of 2 entries from above:

{"VH": "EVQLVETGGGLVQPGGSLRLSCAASGFSLNSYGISWVRQAPGKGPEWVSVIYSDGRRTFYDDSVKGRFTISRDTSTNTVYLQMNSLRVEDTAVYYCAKGKAAGTFDSWGQGTLVTVSS", "log10 Kd, replicates": "0.31 / 0.27 / -0.25 / 0.39 / 0.15 / -0.03", "control signals": "0/18"}
{"VH": "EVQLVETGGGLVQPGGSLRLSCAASGFSLNSYGISWVRQAPGKGPEWVSVIYSDGQRTFYADSVKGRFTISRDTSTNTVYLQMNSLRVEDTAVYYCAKGRTAGTFDSWGQGTLVTVSS", "log10 Kd, replicates": "-0.12 / -0.10 / -0.18 / -0.27 / -0.35 / -0.15", "control signals": "0/18"}